Earlier results on one molecule are cited in patent EP1903052A2, “APJ receptor ligands and uses thereof” (Faust Pharmaceuticals SA, priority 2006, dated 2008).

Protein sequences, listed by entry. Tags and fused reporters are not part of them.
UniProt Q9JHG3, whole entry: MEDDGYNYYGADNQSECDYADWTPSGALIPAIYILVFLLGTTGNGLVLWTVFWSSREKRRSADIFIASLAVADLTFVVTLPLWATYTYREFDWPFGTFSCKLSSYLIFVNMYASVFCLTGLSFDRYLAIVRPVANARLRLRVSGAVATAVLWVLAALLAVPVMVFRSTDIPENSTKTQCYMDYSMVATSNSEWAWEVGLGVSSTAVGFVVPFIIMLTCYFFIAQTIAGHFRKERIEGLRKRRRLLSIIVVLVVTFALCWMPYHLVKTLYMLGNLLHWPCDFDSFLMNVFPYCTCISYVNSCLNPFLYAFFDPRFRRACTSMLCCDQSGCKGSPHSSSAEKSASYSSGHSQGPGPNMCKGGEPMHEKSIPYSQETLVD

In one data set the target is rat apelin receptor-EGFP (Rattus norvegicus, UniProt Q9JHG3). Particulars: cited from earlier work.
In the next data set the target is rat APJ receptor (Rattus norvegicus, UniProt Q9JHG3). As to conditions: cited from earlier work.
Where [1] appears, read: 100 nM, Reaux et al., J. Neurochem., 2001.

As for `CSCC[C@H](NC(=O)[C@@H]1CCCN1C(=O)CNC(=O)[C@H](CCCCN)NC(=O)[C@H](Cc1cnc[nH]1)NC(=O)[C@H](CO)NC(=O)[C@H](CC(C)C)NC(=O)[C@H](CCCNC(=N)N)NC(=O)[C@@H]1CCCN1C(=O)[C@H](CCCNC(=N)N)NC(=O)[C@H](CCC(N)=O)NC(=O)[C@H](CCCNC(=N)N)NC(=O)[C@H](CCCNC(=N)N)NC(=O)[C@H](Cc1ccccc1)NC(=O)[C@@H](N)CCCCN)C(=O)N1CCC[C@H]1C(=O)N[C@@H](Cc1ccccc1)C(=O)O`, the “internalization of the rat apelin receptor-EGFP” value on rat apelin receptor-EGFP (setting [1]) is reported as “intense internalization”. At rat apelin receptor-EGFP (at concentrations of 10^-8 M, Reaux et al. 2001, El Messari et al. 2004), the “internalisation of the APJ receptor” value is “massive internalisation”. In addition, the “forskolin-stimulated cAMP production” value on rat APJ receptor (setting [1]) is given as “inhibit”. The IC50 at rat APJ receptor (inhibition of cAMP production induced by forskolin, CHO cell line expressing the murine APJ receptor, De Mota et al., Neuroendocrinology, 2000) is 0.13 nM.

Broadly, the IC50 is the concentration that gives 50% inhibition.
